{
  "source": "paper PMC8261488",
  "about": "“Contraceptive progestins with androgenic properties stimulate breast epithelial cell proliferation” (EMBO Molecular Medicine, 2021)",
  "origin": "cited, not measured here",
  "test_system": "women",
  "settings": "ref Soini et al, 2016; cited from earlier work",
  "data": [
    {"compound": "C#C[C@]1(O)CC[C@H]2[C@@H]3CCC4=CC(=O)CC[C@@H]4[C@H]3CC[C@@]21CC", "note": "[LNG, levonorgestrel]", "values": [
      {"measurement": "RR for lobular breast cancer", "value": 1.33}
    ]}
  ]
}
